Measured values: patent US20140155420A1, “INHIBITORS OF EYA2” (The Regents of the University of Colorado, a body corporate, priority 2011, published 2014)
Where two headings read alike, the source gives them in different places.

Target: T1, Eya2 ED (Homo sapiens, UniProt O00167)
T1 sequence (O00167 253-538): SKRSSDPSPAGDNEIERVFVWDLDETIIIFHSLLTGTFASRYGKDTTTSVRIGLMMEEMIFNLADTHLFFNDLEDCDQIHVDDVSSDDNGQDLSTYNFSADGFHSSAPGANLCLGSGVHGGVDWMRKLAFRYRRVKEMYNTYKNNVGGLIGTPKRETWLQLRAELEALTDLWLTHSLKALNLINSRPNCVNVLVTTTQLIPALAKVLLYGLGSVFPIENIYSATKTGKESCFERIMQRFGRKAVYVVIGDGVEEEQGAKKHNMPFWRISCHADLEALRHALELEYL
Conditions: for IC50: read-out: IC50, inhibition of Eya2 ED phosphatase activity

SMILES: O=C(O)CN(CCOCCOCCN(CC(=O)O)CC(=O)O)CC(=O)O [EGTA]
- IC50: 65 µM

SMILES: O=C(O)CN(CCN(CC(=O)O)CC(=O)O)CC(=O)O [EDTA]
- Inhibition of Eya2 ED phosphatase activity (OMFP substrate): inhibited
- IC50 (OMFP substrate): 65 µM
